This note sets out measurements from patent publication US12606561B2, “Substituted pyrazolo[1,5-a][1,3,5]triazines as CDK inhibitors” (QURIENT CO., LTD., priority 2018, dated 2026).

Chains of the proteins cited; added tags and fusions are not shown. Residues count along the entry.
UniProt P06493, whole entry: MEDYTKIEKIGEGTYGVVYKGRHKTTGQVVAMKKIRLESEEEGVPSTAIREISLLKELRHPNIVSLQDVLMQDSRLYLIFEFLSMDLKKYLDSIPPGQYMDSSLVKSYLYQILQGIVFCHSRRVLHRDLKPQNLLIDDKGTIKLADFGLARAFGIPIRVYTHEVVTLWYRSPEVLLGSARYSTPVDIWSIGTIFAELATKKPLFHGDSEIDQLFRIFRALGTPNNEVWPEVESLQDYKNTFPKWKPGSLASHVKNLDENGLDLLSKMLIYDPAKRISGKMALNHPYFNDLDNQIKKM
UniProt Q00535, whole entry: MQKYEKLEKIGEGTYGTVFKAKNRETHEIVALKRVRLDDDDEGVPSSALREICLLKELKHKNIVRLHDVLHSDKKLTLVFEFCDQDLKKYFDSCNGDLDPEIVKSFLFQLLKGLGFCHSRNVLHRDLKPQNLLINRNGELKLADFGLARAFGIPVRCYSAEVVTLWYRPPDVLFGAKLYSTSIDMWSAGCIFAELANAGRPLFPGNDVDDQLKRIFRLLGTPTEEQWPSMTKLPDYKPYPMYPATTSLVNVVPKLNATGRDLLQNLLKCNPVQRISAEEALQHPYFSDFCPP
UniProt P50613, whole entry: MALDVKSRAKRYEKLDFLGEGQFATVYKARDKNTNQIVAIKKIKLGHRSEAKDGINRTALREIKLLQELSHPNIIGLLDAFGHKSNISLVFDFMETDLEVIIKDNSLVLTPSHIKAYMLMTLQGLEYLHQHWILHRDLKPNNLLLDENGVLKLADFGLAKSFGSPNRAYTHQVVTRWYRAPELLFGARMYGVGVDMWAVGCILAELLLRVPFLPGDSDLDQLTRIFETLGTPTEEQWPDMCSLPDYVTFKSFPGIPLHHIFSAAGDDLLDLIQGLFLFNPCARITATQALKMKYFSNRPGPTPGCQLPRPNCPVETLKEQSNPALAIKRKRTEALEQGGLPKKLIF
UniProt P51948, whole entry partner: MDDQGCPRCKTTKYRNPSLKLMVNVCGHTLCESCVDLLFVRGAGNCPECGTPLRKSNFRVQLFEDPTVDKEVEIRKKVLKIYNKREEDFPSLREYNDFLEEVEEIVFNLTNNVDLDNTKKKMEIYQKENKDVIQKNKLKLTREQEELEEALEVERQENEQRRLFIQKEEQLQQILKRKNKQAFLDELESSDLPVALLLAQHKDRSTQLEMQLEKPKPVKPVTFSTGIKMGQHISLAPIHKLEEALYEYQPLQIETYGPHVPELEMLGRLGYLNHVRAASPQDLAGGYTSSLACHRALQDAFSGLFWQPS
UniProt P51946, whole entry partner: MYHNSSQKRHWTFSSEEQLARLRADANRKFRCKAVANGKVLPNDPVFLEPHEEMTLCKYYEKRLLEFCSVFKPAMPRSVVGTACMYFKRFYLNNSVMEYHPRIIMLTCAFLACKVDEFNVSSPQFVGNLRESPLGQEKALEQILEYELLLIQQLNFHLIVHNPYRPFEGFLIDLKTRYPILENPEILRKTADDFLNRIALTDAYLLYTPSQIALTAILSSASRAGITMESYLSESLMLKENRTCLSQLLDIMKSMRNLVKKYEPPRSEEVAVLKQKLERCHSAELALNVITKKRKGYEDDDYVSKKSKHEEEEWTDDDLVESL
UniProt Q15078, 99-307 partner limits assumed: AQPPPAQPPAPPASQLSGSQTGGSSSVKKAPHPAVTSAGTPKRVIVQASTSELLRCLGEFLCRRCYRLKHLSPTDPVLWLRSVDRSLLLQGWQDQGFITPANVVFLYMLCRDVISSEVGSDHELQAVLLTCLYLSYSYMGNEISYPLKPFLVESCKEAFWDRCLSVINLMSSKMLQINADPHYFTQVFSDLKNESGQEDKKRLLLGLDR
UniProt P14635, whole entry partner: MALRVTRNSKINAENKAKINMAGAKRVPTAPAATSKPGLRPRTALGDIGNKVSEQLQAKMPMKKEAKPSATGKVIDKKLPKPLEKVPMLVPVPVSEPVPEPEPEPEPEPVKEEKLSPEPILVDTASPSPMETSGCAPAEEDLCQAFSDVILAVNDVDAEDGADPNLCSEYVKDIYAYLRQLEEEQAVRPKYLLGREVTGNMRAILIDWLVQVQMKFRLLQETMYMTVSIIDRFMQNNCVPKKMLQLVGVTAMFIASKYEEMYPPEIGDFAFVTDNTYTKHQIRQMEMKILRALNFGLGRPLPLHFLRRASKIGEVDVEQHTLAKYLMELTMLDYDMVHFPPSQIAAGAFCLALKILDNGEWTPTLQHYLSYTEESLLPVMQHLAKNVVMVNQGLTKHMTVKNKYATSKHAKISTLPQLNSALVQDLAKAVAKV

Assay [1] deals with CDK1/Cyclin B (Homo sapiens, UniProt P06493). Briefly: Enzymatic assay for CDK1 (LANCE Ultra kinase assay, FRET based). The settings on record: read-out: CDK1 enzymatic activity IC50; ATP at Km.
The target of assay [2] is CDK2/Cyclin A (Homo sapiens, UniProt P24941). Briefly: Enzymatic assay for CDK2 (LANCE Ultra kinase assay, FRET based). The settings on record: read-out: CDK2 enzymatic activity IC50; ATP at Km. As to the method: (§1) Enzymatic Binding Assay Protocol for CDK1, CDK2, CDK5 and CDK7
(§2) Inhibition activity of the respective compound on CDK kinase under Km value of ATP was tested in FRET based The LANCE® Ultra kinase assay (Perkin Elmer), which uses a ULight™-labeled peptide substrate and an appropriate Europium-labeled anti-phospho-antibody. Test compounds were made with DMSO solutions, and then 4-fold serial dilutions for 8 doses were prepared using automated liquid handler (POD™ 810, Labcyte) and 80 nL/well of diluted compound solutions were added into the 384-well plates (Greiner, Cat #784075). And then 68 nM of ULight-MBP peptide (Perkin Elmer, Cat #TRF0109-M) and 5 ul/well of ATP (Sigma, Cat #A7699) were added to the plate. After 1 min centrifugation at 1000 rpm, purified CDKs/Cyclin complex were added with the following concentrations respectively. 24 uM for CDK1/Cyclin B (Invitrogen, Cat #PR4768C), 22 uM for CDK2/Cyclin A (Invitrogen, Cat #PV6290), 10 uM for CDK5/p25 (Invitrogen, Cat #PR8543B) and […] for CDK7/Cyclin H/MNAT1 (Invitrogen, Cat #PR6749B) were added to each corresponding plate for CDK1, CDK2, CDK5 and CDK7. […] After additional incubation at 23° C. for 60 min, test articles were measured the fluorescence using Envision leader (Perkin Elmer, USA) [Laser as excitation light; […] as the first and the second emission filter]. Data were analyzed using XL Fit software.
In general terms: In TR-FRET formats the signal depends on donor and acceptor labels being close together.

Assay [3] has as its target CDK5/p25 (Homo sapiens, UniProt Q00535). Briefly: Enzymatic assay for CDK5 (LANCE Ultra kinase assay, FRET based). Conditions: read-out: CDK5 enzymatic activity IC50; ATP at Km. The method, then: as §1, §2
Assay [4] has as its target CDK7/Cyclin H/MNAT1 (Homo sapiens, UniProt P50613). Briefly: Enzymatic assay for CDK7 (LANCE Ultra kinase assay, FRET based).
The subject of assay [5] is MV4-11. Put plainly: Cellular MV4-11 viability assay (CellTiter-Glo, 72 hours). Conditions: read-out: MV4-11 viability assay IC50; MV4-11 cells. The method, then: (§3) Human […] cell line, MV4-11_(ATCC, Cat #CRL-9591), NSCLC (Non-small cell lung cancer) cell line H460 (ATCC, Cat #HTB-177), A2780 (ECACC, Cat #93112519) and OVCAR-3(ATCC, Cat #HTB-161) were obtained from ATCC. Cells were grown in RPMI-1640 media (Invitrogen, Cat #22400-089) supplemented with 10% FBS (Invitrogen, Cat #10099141) and 1% penicillin/streptomycin (Invitrogen, Cat #15070063) and cultured at 37° C., 5% CO2 in a humidified chamber. All cell lines were routinely tested for mycoplasma.
(§4) To effect of the CDK7 inhibitor to inhibit the growth of target cancer cells, viability assay were conducted a 72 hour time period. Briefly, the candidate cell line was plated in 96 well plate at the following density of cells respectively. 1×10^4 cells/well for MV4-11, 5×10^3 for H460 and OVCAR-3, and 1×10^3 for A2780. After 24 hours, the cells were treated with various concentrations of the compound (ranging from 0.0015 uM to 10 uM). DMSO solvent without compound served as a control and final DMSO concentration lest than 0.1%. After 72 hours of incubation at 37° C., 5% CO2 incubator, cells were analyzed for the viability using the CellTiter-Glo Luminescent Cell Viability Assay (Promega, Cat #G7570). All viability assays were performed in duplicate and Luminescence was read using an Envision (Perkin Elmer, USA). Data was analyzed using XLfit software.
For orientation: In ATP-based viability assays light output follows the ATP content of the culture.

In assay [6] the test system is A2780. Briefly: A2780 viability assay (CellTiter-Glo, 72 hours). The settings on record: read-out: A2780 viability assay IC50; A2780 cells. As to the method:
as §3, §4

The test system of assay [7] is OVCAR-3. Briefly: OVCAR-3 viability assay (CellTiter-Glo, 72 hours). Conditions: read-out: OVCAR-3 viability assay IC50; OVCAR-3 cells. The method, then: as §3, §4

As to `C/C=C/C(=O)Nc1cccc2ccc(-c3cccc(C)c3CNc3nc(NCC4CCNCC4O)nc4c(C(C)C)cnn34)nc12` (stereo not shown), the IC50 (in general, the point on the concentration scale where inhibition reaches its midpoint) was greater than 1 µM in assay [1]; greater than 1 µM in assay [2]; greater than 1 µM in assay [3]; less than 0.1 µM in assay [4] (read-out: CDK7 enzymatic activity IC50, ATP at Km); 1 to 10 µM in assay [5]; 1 to 10 µM in assay [6]. Also, in assay [7], the 50% inhibitory concentration (IC50) is 1 to 10 µM. Moreover, the “CDK1/CDK7: Selectivity of CDK7 inhibition over CDK1 inhibition” value in assay [4] (CDK7 over CDK1) is “A (A indicates [fold] > 500)”. For the same compound, the “CDK2/CDK7: Selectivity of CDK7 inhibition over CDK2 inhibition” value in assay [4] (CDK7 over CDK2) was “A (A indicates [fold] > 500)”. In assay [4] (CDK7 over CDK5), the “CDK5/CDK7: Selectivity of CDK7 inhibition over CDK5 inhibition” value is “A (A indicates [fold] > 500)”.
